Chains of the proteins cited; added tags and fusions are not shown. Lines headed by an entry give the natural chain unless they say otherwise; changes in a name come on top.
UniProt P11473: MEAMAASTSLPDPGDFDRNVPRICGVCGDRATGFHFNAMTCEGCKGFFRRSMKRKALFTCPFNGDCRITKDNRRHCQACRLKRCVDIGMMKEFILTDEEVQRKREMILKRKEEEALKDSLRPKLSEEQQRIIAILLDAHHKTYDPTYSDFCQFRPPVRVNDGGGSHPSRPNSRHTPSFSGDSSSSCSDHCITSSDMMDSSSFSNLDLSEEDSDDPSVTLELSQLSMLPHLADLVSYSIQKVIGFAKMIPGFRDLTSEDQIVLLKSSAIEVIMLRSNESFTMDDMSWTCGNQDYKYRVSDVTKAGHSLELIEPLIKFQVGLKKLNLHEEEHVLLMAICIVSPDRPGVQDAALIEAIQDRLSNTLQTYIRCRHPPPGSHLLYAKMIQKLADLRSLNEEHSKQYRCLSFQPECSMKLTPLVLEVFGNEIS

This is a selection; strong and weak results do not stand in their true shares. Results filed as inconclusive are left out. The source made the active and inactive calls. Calls come from the whole dose curve; as a rule, active = well fitted inhibition curve with a large enough effect; inconclusive = small, poorly fitted or top-dose-only effect, or another doubt; inactive = no such curve, though single readings can be large or run the other way.
Each compound was assayed against Vitamin D3 receptor (Homo sapiens) (UniProt P11473) (assay: Inhibitors of the vitamin D receptor (VDR): qHTS). Conditions: VDR-SRC2-3 peptide fluorescence polarization, 2 h; hits give low values.
In the case of `CCCCC1C(=O)N(c2ccccc2)N(c2ccccc2)C1=O`, the max response, negative = inhibition is reported as inactive: -14.7%.

From PubChem BioAssay AID504847 (National Center for Advancing Translational Sciences (NCATS), 2011)
% is set by controls: 0 for no effect and ±100 for the full control effect.
